Values of other authors as cited in patent publication US10877035B2, “Advanced drug development and manufacturing” (ICAGEN, LLC, priority 2006, dated 2020).

The chains behind the UniProt entries cited, without tags or fusion partners. Residues count along the entry.
UniProt Q01693, 107-405 limits assumed: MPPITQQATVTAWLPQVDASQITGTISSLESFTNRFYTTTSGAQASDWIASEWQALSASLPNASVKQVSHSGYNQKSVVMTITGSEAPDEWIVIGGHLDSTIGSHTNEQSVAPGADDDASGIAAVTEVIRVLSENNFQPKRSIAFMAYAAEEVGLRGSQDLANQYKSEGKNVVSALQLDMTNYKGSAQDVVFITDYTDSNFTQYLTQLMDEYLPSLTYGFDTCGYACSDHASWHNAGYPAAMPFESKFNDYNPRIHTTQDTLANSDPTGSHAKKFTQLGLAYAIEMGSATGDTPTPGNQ

Biological target: di-zinc aminopeptidase (aAP) (Vibrio proteolyticus, UniProt Q01693)
Settings: pH 8.0, competitive inhibitor; cited from earlier work

For leucine phosphonic acid [LPA], the Ki is given as 6.6 µM.
